Consider one molecule from patent US20050163773A1, “Methods and pharmaceutical compositions for dopaminergic modulation of t-cell adhesion and activity” (priority 2001, published 2005).

One assay concerns TNFα secretion. Briefly: TNFα secretion by human peripheral T-cells (sandwich ELISA). Format: cell-based.
From the text: (§1) The results are expressed as pg/ml.
(§2) The results are expressed as pg/mi.
as §1, §1, §1

The next assay deals with IL-10 secretion. The assay is described as follows: IL-10 secretion by human peripheral T-cells (sandwich ELISA). The class given is cell-based.
From the text: The results are expressed as pg/ml IL-10. […] Immunostaining is with intracellular anti-IL-10 FITC conjugated (FL-1) and anti-CD4 PE conjugated (FL-2) antibodies, as described in Materials and Methods hereinbelow.
as §2, §1, §1, §1
(In general: An ELISA detects its analyte on a solid surface through an enzyme-linked reagent.)

In the case of `CCCN1CCC[C@@H]2Cc3n[nH]cc3C[C@H]21` [Quinpirole], the “induction of TNFα secretion by receptor-specific Dopamine agonists” value in the assay on TNFα secretion is “induced by D1 and D2”. In the assay on IL-10 secretion, the “induction of IL-10 secretion by receptor-specific Dopamine agonists” value is reported as “induced by the D2”.
